Assay: Solubility test: 20 mg sample in 10 g solvent, evaluated visually
Assay type: physicochemical
Details: 20 mg in 10 g solvent (0.2 mass %), room temperature / 25° C., visual
Method: For evaluating the applicability thereof to a wet process, the compound to be analyzed was tested in a dissolution test in various solvents. As a comparative case, anthracene was tested for the dissolution test.
Concretely, 20 mg of the sample was weighed, and the solubility thereof (0.2 mass %) in 10 g of a solvent at room temperature was visually evaluated.
In Table 1, A means soluble, and B means insoluble. The standard of “soluble” was set as the case where the compound dissolved in an amount of 0.2% by mass or more at a solvent temperature of 25° C.

Substance: Perfluorohexylated Anthracene [Example 1-1]
- Solubility Test Cyclohexane (cyclohexane): A (A means soluble)
- Solubility Test Hexane (hexane): A (A means soluble)
